Biological target: Mitogen-activated protein kinase 8 (Homo sapiens, UniProt P45983)
Assay: Competitive inhibition of JNK1 using ATF2 substrate by Lineweaver-Burk analysis

Sequences of proteins named here, by UniProt entry; tags and fusion partners are left off. A change or cut given only in a name is not applied to a line headed by its entry.
UniProt P45983: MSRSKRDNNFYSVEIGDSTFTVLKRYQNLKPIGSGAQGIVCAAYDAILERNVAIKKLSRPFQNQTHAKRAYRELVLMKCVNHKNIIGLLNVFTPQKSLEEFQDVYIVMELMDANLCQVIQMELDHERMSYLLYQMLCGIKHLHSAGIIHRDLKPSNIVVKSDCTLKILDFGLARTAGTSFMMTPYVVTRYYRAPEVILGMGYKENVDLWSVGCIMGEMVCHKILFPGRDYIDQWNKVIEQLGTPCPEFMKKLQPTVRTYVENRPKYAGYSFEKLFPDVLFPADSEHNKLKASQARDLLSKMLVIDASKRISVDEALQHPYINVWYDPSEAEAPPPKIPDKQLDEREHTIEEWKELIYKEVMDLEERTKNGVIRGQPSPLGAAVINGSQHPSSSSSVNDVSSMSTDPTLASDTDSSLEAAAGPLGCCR

- Ki: 1.5 nM
Structure (SMILES): CC(C)C[C@@H](NC(=O)CNC(=O)CNC(=O)CCCNC(=O)c1ccc(-c2n[nH]c3ccccc23)cc1)C(=O)N[C@H](CC(N)=O)C(=O)N[C@H](CC(C)C)C(=O)N[C@@H](C(=O)N[C@@H](C(=O)N1CCC[C@@H]1C(=O)N[C@H](CCCNC(=N)N)C(=O)NCC(=O)NCC(=O)N[C@H](CCCNC(=N)N)C(=O)N[C@H](CCCNC(=N)N)C(=O)N[C@H](CCCNC(=N)N)C(=O)N[C@H](CCC(N)=O)C(=O)N[C@H](CCCNC(=N)N)C(=O)N[C@H](CCCNC(=N)N)C(=O)N[C@H](CCCCN)C(=O)N[C@H](CCCCN)C(=O)N[C@H](CCCNC(=N)N)C(=O)NCC(N)=O)[C@H](C)O)[C@H](C)O
